{"source": "patent US9029092B2", "about": "“Solution phase homogeneous assays” (Beckman Coulter, Inc., priority 2009, dated 2015)", "system": "PSA", "assay": "Assay of PSA with dextran scaffold chemiluminescent-labeled sbp with and without SSIA", "type": "biochemical, human", "conditions": "PSA 51.0 ng/mL, ascorbic acid as SSIA", "experimental": "In this example, one member of a specific binding pair of monoclonal antibodies for PSA is conjugated to a dextran molecule coupled with AK1, as described in Example 10 below, except the antibody is thiolated and covalently-linked to AK11-labeled and maleimide-activated dextran. A second monoclonal PSA antibody was conjugated to HRP, as described above and provided in an aqueous solution at either 0.5 μg/ml, 0.1 μg/ml or 0.03 μg/ml as indicated in the tables below. The assays were performed by placing 25 μl of sample in each of two reaction vessels. To the sample in the first reaction vessel, 25 μl of Ab1 solution, 25 μl of water, 25 μl of Ab2 solution was added and incubated for 15 minutes. In a second reaction vessel 25 μl of Ab1 solution, Ascorbic acid (Sigma, St. Louis, Mo.) in deionized water at the concentrations of 200 or 500 μM (as indicated in the table below), and 25 μl of Ab2 solution were added to 25 μl of sample and incubated for 15 minutes. […] Each sample was analyzed according to the above assay method in triplicate. […] A ratio of signal to noise (S/S0) was calculated at each concentration value. […] Samples of known concentration were prepared as described previously. Each sample was analyzed according to the above method in triplicate."}
{"smiles": "O=C1O[C@H]([C@@H](O)CO)C(O)=C1O", "note": "[Ascorbic Acid]", "values": [{"measurement": "S/S0, w/SSIA", "value": 206.2}]}
